Values of other authors in patent US20130065857A1, “NOVEL DXR INHIBITORS FOR ANTIMICROBIAL THERAPY” (Baylor College of Medicine, priority 2009, published 2013).

Settings: patients; cited from earlier work

In the case of `O=CN(O)CCCP(=O)(O)O` [fosmidomycin], the “half life in plasma” value is listed as 1 h.
